Measured affinities in a library of Ab-14 heavy chain variants

From the AlphaSeq antibody data of Engelhart et al. 2022 (doi:10.1038/s41597-022-01779-4), copy in the FLAb collection.

All variants were tested on one target, the spike HR2 peptide PDVDLGDISGINAS (SARS-CoV-2).

Parent scFv Ab-14: VH joined to VL by the linker GGGGSGGGGSGGGGS. Changes lie in the heavy chain CDRs alone.
VH: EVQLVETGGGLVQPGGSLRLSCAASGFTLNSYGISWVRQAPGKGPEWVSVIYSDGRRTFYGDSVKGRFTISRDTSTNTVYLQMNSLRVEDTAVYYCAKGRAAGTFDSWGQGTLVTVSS
VL: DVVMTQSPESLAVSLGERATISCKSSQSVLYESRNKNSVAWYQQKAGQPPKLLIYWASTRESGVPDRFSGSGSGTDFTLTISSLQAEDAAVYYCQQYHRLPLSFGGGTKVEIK

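Phage display of a naive human antibody library on the peptide gave the parent. Library AAYL49 holds single substitutions and randomly drawn double and triple substitutions in the CDRs. The assay is AlphaSeq: two haploid yeast populations carry antibody and antigen on their surface. Binding brings cells together so that they mate, and sequencing counts the barcode pairs among the diploids. Read counts were normalised to the haploid input and turned into Kd by a linear fit to BCL2-family pairs of known affinity, for each replicate. Mating was done three times.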

Changes read parent residue, position, new residue, counted from the first residue of the VH shown. This list gathers variants with a substitution at F27 (VH, numbered from residue 1). Scale: log10 of Kd in nM, estimated from mating counts; low values are strong binders. An entry "ND" has no value in the source: the pair was not observed among the diploids in that replicate. This suggests poor binding but is not conclusive. For reference, the parent read 0.65 as the reference entry and 4.11 (one replicate of three) as a member of this library.

With F27T T28D the result was 0.31, 0.67, 0.50. Variant F27E S31W Y32G showed 5.81, 4.03, ND. Variant F27H I51V G61Y showed ND, 2.13, ND. Variant F27D L29I I51Q gave 3.81, 2.75, ND. For F27R S53P V64K, the assay gave ND, 3.90, 5.25. For F27G Y32W I34G, the assay gave ND, ND, ND. For F27E N30L F59C, the assay gave 3.71, ND, 5.19.

Variant F27L G55F Y60D gave ND, ND, ND. With F27T G33W R100F the result was ND, 5.40, 3.54. With F27L D62V A102N the result was ND, ND, ND. Variant F27C L29K F105C gave ND, 3.78, ND. With F27E N30Y S35R the result was 5.08, 3.16, 5.66. Variant F27M R56P A102M gave ND, ND, ND. Variant F27C gave 3.36, 2.88, 4.04.

Variant F27W D54M V64L showed ND, ND, ND. Variant F27Y G99R A102Q showed ND, 4.08, ND. For F27A G55E, the assay gave 4.33, 4.01, ND. With F27P G33E F59H the result was ND, ND, ND. Variant F27N N30Y D62F gave ND, ND, ND. Variant F27M A101M G103Y showed ND, ND, ND. Variant F27E S35A D62V showed ND, ND, ND.

For F27I G33V S107E, the assay gave 4.28, 4.32, ND. Variant F27I F59W G99W gave ND, ND, ND. With F27C R57Q G99W the result was 4.28, ND, ND. For F27D G103W D106Y, the assay gave ND, ND, ND. For F27G V50R R100F, the assay gave ND, ND, 3.43. Variant F27A V50C I51G showed ND, ND, ND. For F27I D54S T104S, the assay gave 3.22, ND, ND.

With F27Q N30Y T58G the result was ND, ND, ND. Variant F27K G33H G103W gave 1.65, 1.63, 1.67. For F27G G61K D106I, the assay gave 4.43, ND, ND. Variant F27K R56D T58H showed 4.56, 3.38, 4.13. For F27K S31L, the assay gave 2.69, 2.42, 2.64. Variant F27D D54C D62P gave ND, 4.36, ND. Variant F27E showed 0.33, 0.59, 0.37.

For F27N S35I D62A, the assay gave 4.16, 4.75, ND. Variant F27W D62P gave 2.54, 2.38, 3.33.

The opening 4 entries, copied out:

changes,"log10 Kd, replicates"
F27T T28D,"0.31, 0.67, 0.50"
F27E S31W Y32G,"5.81, 4.03, ND"
F27H I51V G61Y,"ND, 2.13, ND"
F27D L29I I51Q,"3.81, 2.75, ND"

Three control strains display no target. For library AAYL49, 15% of the pairings with them gave a signal, with a median of 4.06 and one signal in twenty below 2.83, so weak values seen in few replicates may be background.